Source: ChEMBL document CHEMBL1687782, “High-resolution crystal structure of the subclass B3 metallo-beta-lactamase BJP-1: rational basis for substrate specificity and interaction with sulfonamides” (Antimicrob Agents Chemother, 2010)

Key:
[1] = test system: Stenotrophomonas maltophilia; assay: Activity at Stenotrophomonas maltophilia 1SML metallo-beta-lactamase L1
Bradyrhizobium japonicum [2] = assay: Activity at Bradyrhizobium japonicum metallo-beta-lactamase BJP-1
[3] = test system: Stenotrophomonas maltophilia; assay: Ratio of Kcat to Km for Stenotrophomonas maltophilia 1SML metallo-beta-lactamase L1
Bradyrhizobium japonicum [4] = assay: Ratio of Kcat to Km for Bradyrhizobium japonicum metallo-beta-lactamase BJP-1

Row | SMILES | Km [1] [µM] | Km (Bradyrhizobium japonicum [2]) [µM] | kcat/Km [3] | kcat/Km (Bradyrhizobium japonicum [4])
1 | CC(=O)OCC1=C(C(=O)O)N2C(=O)[C@@H](NC(=O)Cc3cccs3)[C@H]2SC1 | 8.9 | 230 | 9.2 ×10⁶ /M/s | 5.8 ×10⁵ /M/s
2 | C[C@@H](O)[C@H]1C(=O)N2C(C(=O)O)=C(S[C@@H]3CN[C@H](C(=O)N(C)C)C3)[C@H](C)[C@H]12 | 10 | 190 | 4.5 ×10⁶ /M/s | 8.3 ×10⁵ /M/s
3 | CC(C)(O/N=C(\C(=O)N[C@@H]1C(=O)N2C(C(=O)[O-])=C(C[n+]3ccccc3)CS[C@H]12)c1csc(N)n1)C(=O)O | 145 | > 700 | 2 ×10⁵ /M/s | 4.3 ×10³ /M/s
